S100A4 inh HTS: inhibitors of S100A4-myosin IIA peptide binding, primary screen, biochemical, fluorescence polarization, TAMRA-MyoIIA peptide; Protein S100-A4 (Homo sapiens), P26447; actives 0.14% (n = 360,000); inhibition, % at 10.7 µM;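 active means mean inhibition of at least 70% across replicates, with every replicate also reaching that level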
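System – human S100A4 monomer protein, biochemical binding assay · Buffer or medium – Calcium-containing HEPES buffer, pH 7.2 · Timing – 5 min between mix addition and reading · Also added – TAMRA-labelled myosin IIA heavy-chain peptide probe, 5 nM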
SIRT5 block: SIRT5 desuccinylase inhibitors, primary screen, biochemical, fluorescence imaging, single point, set 5 | actives 1.1% (n = 330,000) | NAD-dependent protein deacylase sirtuin-5, mitochondrial (Homo sapiens), Q9NXA8 | inhibition, % at 15 µM | Purified SirT5, succinyl-peptide AMC, trypsin-coupled fluorescence | AID 652115, 2013; in the data active means inhibition above about 15%
ERp5 block: inhibitors of ERp5-driven insulin aggregation, primary screen, biochemical, turbidity, absorbance 650 nm, single point. Protein disulfide-isomerase A6 (Homo sapiens), Q15084. 90 min. inhibition, % at 9.99 µM. actives 0.05% (n = 350,000);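 active means mean replicate inhibition above about 25%, with every replicate also reaching it, limit read from the data, passing the limit was not always enough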
PDI turbidity: inhibitors of human PDI, primary screen, biochemical, turbidity, single point, plate reader. Protein disulfide-isomerase (Homo sapiens), P07237. actives 0.052% (n = 350,000). PDI insulin aggregation turbidity, A650, 90 min. inhibition, % at 10 µM;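 active means mean inhibition across replicates of 30% or more, whatever share of single replicates reach that level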
UUG fidelity: yeast start codon fidelity modulation | S. cerevisiae UUG-firefly luciferase reporter, luminescence/redox ratio | activity score, % at 18.7 µM | 350,000 tested, 0.13% active;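 active = replicate mean at a twofold rise or more, about +100% in these data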;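 also: firefly luciferase made from a UUG start codon reports start codon fidelity; reporter light over untreated wells divided by growth signal over untreated wells; some hits fall short of that in this replicate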
FGF22 binding: binders of human FGF22 protein, primary screen, FGF22 synaptogenesis inhibitor project, biophysical, thermal shift, single point | actives 1.5% (n = 340,000) | activity (Tm shift, normalised), % at 9.99 µM | recombinant FGF22 thermal shift, SYPRO orange fluorescence; percent of sucrose octasulfate shift, DMSO zero | Fibroblast growth factor 22 (Homo sapiens), Q9HCT0;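 active means mean Tm shift, scaled 0 neutral to 100 positive control, at about 1.3% or above, every replicate too, limit read from the data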
Active calls of the source: *; . = not tested or not shown. Compounds with a hit are over-represented: about 2.2% of the library has one in this group of screens.

Amino acid sequences for entries named in this document (tags omitted).
Protein disulfide-isomerase A6 (Homo sapiens), Q15084, UniProt Q15084, whole entry, looked up: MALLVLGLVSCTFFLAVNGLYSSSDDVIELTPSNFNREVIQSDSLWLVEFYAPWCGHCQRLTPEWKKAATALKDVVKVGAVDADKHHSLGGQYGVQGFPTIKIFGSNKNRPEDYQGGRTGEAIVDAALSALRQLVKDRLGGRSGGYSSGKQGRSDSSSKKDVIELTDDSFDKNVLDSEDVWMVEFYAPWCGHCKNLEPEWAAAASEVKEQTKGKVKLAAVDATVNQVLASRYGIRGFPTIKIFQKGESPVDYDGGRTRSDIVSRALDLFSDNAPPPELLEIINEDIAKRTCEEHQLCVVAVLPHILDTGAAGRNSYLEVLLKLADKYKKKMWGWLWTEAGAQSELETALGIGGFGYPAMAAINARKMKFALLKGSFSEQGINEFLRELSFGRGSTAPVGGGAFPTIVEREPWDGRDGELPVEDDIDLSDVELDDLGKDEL

#1 COCCOC(=O)N1C(=O)[C@@]2(c3cc(C#CC4(O)CCCCCC4)ccc31)[C@H](c1ccc(OCCO)cc1)N1[C@H](c3ccccc3)[C@H](c3ccccc3)OC(=O)[C@H]1[C@@H]2C(=O)N1CCN(c2ncccn2)CC1
#2 C[C@@H]1CN([C@H](C)CO)C(=O)Cc2cc(NS(=O)(=O)c3ccccc3)ccc2O[C@H]1CN(C)Cc1ccc(-c2ccccc2)cc1
#3 CNC[C@H]1OCCCC[C@@H](C)Oc2ccc(N(C)C)cc2C(=O)N([C@H](C)CO)C[C@H]1C
#4 C[C@@H]1CCCCO[C@H](CN(C)C(=O)CCCN(C)C)[C@@H](C)CN([C@@H](C)CO)C(=O)c2cc(N(C)C)ccc2O1
#5 CNC[C@@H]1OCCCC[C@H](C)Oc2ccc(N(C)C)cc2C(=O)N([C@H](C)CO)C[C@@H]1C
#6 C[C@@H]1CN([C@H](C)CO)C(=O)c2cc(N(C)C)ccc2O[C@@H](C)CCCCO[C@@H]1CN(C)C(=O)NC1CCCCC1

| assay / compound | 1 | 2 | 3 | 4 | 5 | 6 |
| --- | --- | --- | --- | --- | --- | --- |
| S100A4 inh HTS | 2.5 | 6.5 | 1.1 | -51.1 | 1.1 | 104.1* |
| SIRT5 block | -1.1 | 15.2* | 15.2* | 16.2* | -5.4 | 7.1 |
| ERp5 block | 1.3 | 3.6 | 5.5 | 1.2 | -6.1 | -2.1 |
| PDI turbidity | . | . | . | . | . | . |
| UUG fidelity | . | 1.9 | 14.3 | 16.1 | -10.4 | 47.7 |
| FGF22 binding | -0.4 | -0.3 | 0.0 | -1.4 | -1.0 | -1.2 |

#7 C[C@@H]1CCCCO[C@@H](CN(C)C(=O)NC2CCCCC2)[C@@H](C)CN([C@@H](C)CO)C(=O)c2cc(N(C)C)ccc2O1
#8 CN1[C@H](C(=O)NCCCN2CCOCC2)[C@@H](CO)[C@@H]2Cn3c(ccc(/C=C/c4ccccc4)c3=O)[C@@H]21
#9 O=C(O)C1C2CCC(CC2)C1C(=O)O (stereo unspecified)
#10 O=C(O)C1C2CCC1C(O)C2 (stereo unspecified)
#11 CCC(CC)c1nnc(NC(=O)C2=NNC(=O)CC2)s1
#12 O=C(Cn1[nH]c(=O)c2ccccc2c1=O)OCC(=O)c1ccc(F)cc1

| assay / compound | 7 | 8 | 9 | 10 | 11 | 12 |
| --- | --- | --- | --- | --- | --- | --- |
| S100A4 inh HTS | 1.0 | . | 2.6 | 4.9 | 9.9 | -4.0 |
| SIRT5 block | -0.5 | . | 0.9 | . | 1.9 | 15.7* |
| ERp5 block | 5.5 | . | 8.3 | 6.1 | 4.3 | -9.8 |
| PDI turbidity | . | . | -3.3 | 4.5 | 0.9 | 3.4 |
| UUG fidelity | 19.9 | . | -14.0 | . | . | . |
| FGF22 binding | . | -0.1 | -0.1 | 43.3* | 43.1* | -0.1 |

#13 NC(=O)NCC#Cc1ccc2c(c1)[C@]1(C(=O)N2)[C@H](c2ccc(O)cc2)N2[C@H](c3ccccc3)[C@H](c3ccccc3)OC(=O)[C@H]2[C@@H]1C(N)=O
#14 C[C@@H]1CN([C@@H](C)CO)S(=O)(=O)c2ccc(-c3ccncc3)cc2O[C@H]1CN(C)S(=O)(=O)c1ccccc1F
#15 C[C@H]1CN([C@@H](C)CO)C(=O)Cc2cc(NS(=O)(=O)c3ccc(Cl)cc3)ccc2O[C@H]1CN(C)CC1CCCCC1
#16 C[C@@H]1CN([C@@H](C)CO)C(=O)Cc2cc(NS(=O)(=O)c3ccc(F)cc3)ccc2O[C@@H]1CN(C)CC1CCCCC1
#17 C[C@@H]1CN([C@@H](C)CO)C(=O)Cc2cc(NS(=O)(=O)c3ccc(F)cc3)ccc2O[C@H]1CN(C)CC1CCCCC1
#18 C[C@H](CO)N1C[C@H](C)[C@H](CN(C)CC2CCCCC2)Oc2ccc(NS(=O)(=O)c3ccc(Cl)cc3)cc2CC1=O

| assay / compound | 13 | 14 | 15 | 16 | 17 | 18 |
| --- | --- | --- | --- | --- | --- | --- |
| S100A4 inh HTS | 54.6 | 3.0 | 22.8 | -24.9 | 2.4 | 27.5 |
| SIRT5 block | 4.4 | 7.9 | . | 13.9 | 16.4* | 29.1* |
| ERp5 block | 3.7 | 4.2 | -3.8 | 1.5 | 3.2 | 2.2 |
| PDI turbidity | . | . | . | . | . | . |
| UUG fidelity | . | . | -6.4 | 10.7 | 28.5 | 8.1 |
| FGF22 binding | -0.8 | -0.5 | 0.1 | -0.1 | -0.1 | . |

#19 COc1cccc(C(=O)c2c[nH]c(C(=O)NCCCN3CCOCC3)c2)c1
#20 CC(C)(C)c1ccc(C(=O)c2c[nH]c(C(=O)NCCCN3CCOCC3)c2)cc1
#21 O=C(N/N=C/c1ccccc1F)c1ccccc1OCc1ccccc1
#22 O=C(N/N=C/c1ccc[nH]1)c1ccccc1OCc1ccc(F)cc1
#23 Cc1nc2c(C)c(C)c(C)c(C)c2nc1C
#24 Cc1nc2nc(C)c(C)nc2nc1C

| assay / compound | 19 | 20 | 21 | 22 | 23 | 24 |
| --- | --- | --- | --- | --- | --- | --- |
| S100A4 inh HTS | 6.1 | . | -1.6 | 1.6 | -30.1 | -0.5 |
| SIRT5 block | -0.7 | . | 0.1 | 21.9* | 0.1 | . |
| ERp5 block | 1.6 | . | -3.5 | 0.5 | 2.8 | -1.2 |
| PDI turbidity | -0.7 | -3.6 | 4.1 | 3.9 | -8.5 | -5.0 |
| UUG fidelity | . | 2.8 | -14.9 | . | -1.1 | -21.2 |
| FGF22 binding | 43.1* | . | -0.7 | 0.1 | -0.3 | 42.9* |

Compounds above that have a COOH group:
#9 O=C(O)C1C2CCC(CC2)C1C(=O)O (stereo unspecified)
#10 O=C(O)C1C2CCC1C(O)C2 (stereo unspecified)

| assay / compound | 9 | 10 |
| --- | --- | --- |
| S100A4 inh HTS | 2.6 | 4.9 |
| SIRT5 block | 0.9 | . |
| ERp5 block | 8.3 | 6.1 |
| PDI turbidity | -3.3 | 4.5 |
| UUG fidelity | -14.0 | . |
| FGF22 binding | -0.1 | 43.3* |

Continuation.
#25 CCN(CC)P(=O)(Nc1ccccc1Br)c1ccc(N(C)C)cc1NC(=O)c1ccco1 (stereo unspecified)
#26 CCN(CC)C(=O)c1cc(Cl)ccc1NC(=O)c1ccco1
#27 CCC(=O)Nc1ccc2c(c1)C(=O)N(C)C[C@H](OC)[C@@H](C)CN(C(=O)c1ccc(F)cc1)[C@H](C)CO2
#28 CC(C)(C)c1cnnn1-c1ccc(/C=N/Nc2ccc([N+](=O)[O-])cc2)cc1
#29 O=[N+]([O-])c1ccc(C=NNc2ccccc2)cc1
#30 Cc1ccc(NC(=O)CSc2nc3[nH]ncc3c(=O)[nH]2)cc1

| assay / compound | 25 | 26 | 27 | 28 | 29 | 30 |
| --- | --- | --- | --- | --- | --- | --- |
| S100A4 inh HTS | 2.0 | -4.1 | -17.7 | 0.4 | 0.5 | -3.6 |
| SIRT5 block | 0.4 | -2.5 | -3.5 | 1.8 | . | -1.2 |
| ERp5 block | -4.0 | 1.9 | 2.2 | 3.9 | 2.1 | -5.2 |
| PDI turbidity | -5.3 | 1.5 | . | 7.3 | -8.8 | 9.2 |
| UUG fidelity | . | -16.2 | -2.8 | -11.4 | -10.3 | -14.7 |
| FGF22 binding | 44.0* | -0.2 | 0.3 | 43.0* | 0.3 | 43.6* |

Shown as a hit in S100A4 inh HTS, among the entries above:
#	smiles	S100A4 inh HTS	SIRT5 block	ERp5 block	PDI turbidity	UUG fidelity
6	C[C@@H]1CN([C@H](C)CO)C(=O)c2cc(N(C)C)ccc2O[C@@H](C)CCCCO[C@@H]1CN(C)C(=O)NC1CCCCC1	104.1*	7.1	-2.1	.	47.7

Next part:
#31 O=C(CSc1nc2[nH]ncc2c(=O)[nH]1)Nc1ccc(OC(F)(F)F)cc1
#32 COc1ccc([C@@H]2[C@@H](C)N(c3ccccc3)c3ccccc3C(=O)N2Cc2ccccc2)cc1
#33 Cc1ccc(S(=O)(=O)N[C@@H]2CC[C@@H](CC(=O)NCc3ccccc3F)O[C@@H]2CO)cc1
#34 CCCC(=O)Nc1ccc2c(c1)C(=O)N(C)C[C@H](OC)[C@@H](C)CN(Cc1ccccc1)[C@H](C)CO2
#35 CCCC(=O)Nc1ccc2c(c1)C(=O)N(C)C[C@H](OC)[C@H](C)CN(Cc1ccccc1)[C@@H](C)CO2
#36 CCCC(=O)Nc1ccc2c(c1)C(=O)N(C)C[C@H](OC)[C@H](C)CN(Cc1ccccc1)[C@H](C)CO2
#37 CCCC(=O)Nc1ccc2c(c1)OC[C@H](C)N(Cc1ccccc1)C[C@H](C)[C@H](OC)CN(C)C2=O
#38 COCC(=O)Nc1ccc2c(c1)OC[C@@H](C)N(CCc1ccccc1)C[C@@H](C)[C@H](OC)CN(C)C2=O

| assay / compound | 31 | 32 | 33 | 34 | 35 | 36 | 37 | 38 |
| --- | --- | --- | --- | --- | --- | --- | --- | --- |
| S100A4 inh HTS | 2.0 | -1.9 | 9.7 | 0.1 | 98.0* | 96.2* | -12.1 | -3.6 |
| SIRT5 block | -3.5 | . | 8.4 | -0.7 | 0.5 | -2.4 | 1.9 | 31.0* |
| ERp5 block | -3.1 | 0.5 | -1.1 | 0.1 | -1.7 | 3.8 | 1.2 | -1.5 |
| PDI turbidity | -9.1 | 6.2 | . | . | . | . | . | . |
| UUG fidelity | . | -4.7 | -0.8 | 2.0 | 2.2 | 3.9 | -6.5 | -3.0 |
| FGF22 binding | 13.9* | 43.5* | -0.3 | 0.1 | -0.4 | -0.5 | -0.1 | 0.0 |
